# Reference: article PMC4979570 (Journal of medicinal chemistry, 2016)
# Protein sequences, listed by entry. Tags and fused reporters are not part of them. Residues count along the entry.
# UniProt P41148, 22-804: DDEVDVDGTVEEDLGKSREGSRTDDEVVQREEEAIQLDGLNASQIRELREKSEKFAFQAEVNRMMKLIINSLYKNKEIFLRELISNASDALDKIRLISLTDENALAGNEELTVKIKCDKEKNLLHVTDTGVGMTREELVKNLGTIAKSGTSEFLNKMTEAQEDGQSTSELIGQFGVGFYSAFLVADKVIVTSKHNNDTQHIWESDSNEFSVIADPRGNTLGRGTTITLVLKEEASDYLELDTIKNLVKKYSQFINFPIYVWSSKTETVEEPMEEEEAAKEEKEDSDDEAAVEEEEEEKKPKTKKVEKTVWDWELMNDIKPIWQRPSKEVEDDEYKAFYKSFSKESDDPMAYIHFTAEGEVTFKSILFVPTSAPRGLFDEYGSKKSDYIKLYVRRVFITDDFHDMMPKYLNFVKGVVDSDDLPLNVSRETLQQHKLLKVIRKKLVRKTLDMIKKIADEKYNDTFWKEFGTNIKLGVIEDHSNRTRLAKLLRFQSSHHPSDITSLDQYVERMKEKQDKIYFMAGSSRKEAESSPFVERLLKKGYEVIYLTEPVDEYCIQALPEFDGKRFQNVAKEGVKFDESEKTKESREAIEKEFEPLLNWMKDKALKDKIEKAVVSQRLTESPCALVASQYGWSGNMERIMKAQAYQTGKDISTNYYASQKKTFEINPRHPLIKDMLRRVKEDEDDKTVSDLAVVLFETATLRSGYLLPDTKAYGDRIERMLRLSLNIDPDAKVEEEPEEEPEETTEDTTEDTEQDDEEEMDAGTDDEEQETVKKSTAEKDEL
# Target: Grp94 (Canis lupus familiaris, UniProt P41148)
# Assay type: binding
# Conditions: Grp94 over Hsp90α, from apparent Kd
row,Fold Selective for Grp94 [fold],SMILES
1,> 40,"COC(=O)c1c(O)cc(O)c(Cl)c1CCc1nccn1Cc1ccccc1OC [compound 38, Methyl 3-Chloro-4,6-dihydroxy-2-(2-(1-(2-methoxybenzyl)-1H-imidazol-2-yl)ethyl)benzoate]"
2,11,"C#Cc1ccc(Cn2ccnc2CCc2c(Cl)c(O)cc(O)c2C(=O)OC)cc1 [compound 18, Methyl 3-Chloro-2-(2-(1-(4-ethynylbenzyl)-1H-imidazol-2-yl)-ethyl)-4,6-dihydroxybenzoate]"
3,>22,"COC(=O)c1c(O)cc(O)c(Cl)c1CCc1nccn1Cc1ccc(OC)cc1 [compound 21, Methyl 3-Chloro-4,6-dihydroxy-2-(2-(1-(4-methoxybenzyl)-1H-imidazol-2-yl)ethyl)benzoate]"
4,23,"COC(=O)c1c(O)cc(O)c(Cl)c1CCc1nccn1Cc1ccccc1C [compound 36, Methyl 3-Chloro-4,6-dihydroxy-2-(2-(1-(2-methylbenzyl)-1H-imidazol-2-yl)ethyl)benzoate]"
5,6,"COC(=O)c1c(O)cc(O)c(Cl)c1CCc1nccn1Cc1cccc(F)c1 [compound 26, Methyl 3-Chloro-2-(2-(1-(3-fluorobenzyl)-1H-imidazol-2-yl)ethyl)-4,6-dihydroxybenzoate]"
6,34,"COC(=O)c1c(O)cc(O)c(Cl)c1CCc1nccn1Cc1ccc(C)cc1 [compound 14, Methyl 3-Chloro-4,6-dihydroxy-2-(2-(1-(4-methylbenzyl)-1H-imidazol-2-yl)ethyl)benzoate]"
7,3,"COC(=O)c1c(O)cc(O)c(Cl)c1CCc1nccn1Cc1ccccc1OC(C)C [compound 41, Methyl 3-Chloro-4,6-dihydroxy-2-(2-(1-(2-isopropoxybenzyl)-1H-imidazol-2-yl)ethyl)benzoate]"
8,> 40,"CCc1ccccc1Cn1ccnc1CCc1c(Cl)c(O)cc(O)c1C(=O)OC [compound 39, Methyl 3-Chloro-2-(2-(1-(2-ethylbenzyl)-1H-imidazol-2-yl)ethyl)-4,6-dihydroxybenzoate]"
9,13,"COC(=O)c1c(O)cc(O)c(Cl)c1CCc1nccn1Cc1ccccc1Br [compound 35, Methyl 2-(2-(1-(2-Bromobenzyl)-1H-imidazol-2-yl)ethyl)-3-chloro-4,6-dihydroxybenzoate]"
10,4,"COC(=O)c1c(O)cc(O)c(Cl)c1CCc1nccn1Cc1ccc(C#N)cc1 [compound 17, Methyl 3-Chloro-2-(2-(1-(4-cyanobenzyl)-1H-imidazol-2-yl)-ethyl)-4,6-dihydroxybenzoate]"
11,13,"COC(=O)c1c(O)cc(O)c(Cl)c1CCc1nccn1Cc1ccccc1C(F)(F)F [compound 43, Methyl 3-Chloro-4,6-dihydroxy-2-(2-(1-(2-(trifluoromethyl)-benzyl)-1H-imidazol-2-yl)ethyl)benzoate]"

# Same assay, conditions: relative to BnIm
row,SMILES,increase in affinity for Grp94 compared to BnIm
1,"CCOc1ccccc1Cn1ccnc1CCc1c(Cl)c(O)cc(O)c1C(=O)OC [compound 40, Methyl 3-Chloro-2-(2-(1-(2-ethoxybenzyl)-1H-imidazol-2-yl)-ethyl)-4,6-dihydroxybenzoate]",~ 6 fold
